This note sets out measurements from US5574070A, “Substituted guanidines having high binding to the sigma receptor and the use thereof” (priority 1993, dated 1996).

Protein sequences, listed by entry. Tags and fused reporters are not part of them.
UniProt Q60492, whole entry: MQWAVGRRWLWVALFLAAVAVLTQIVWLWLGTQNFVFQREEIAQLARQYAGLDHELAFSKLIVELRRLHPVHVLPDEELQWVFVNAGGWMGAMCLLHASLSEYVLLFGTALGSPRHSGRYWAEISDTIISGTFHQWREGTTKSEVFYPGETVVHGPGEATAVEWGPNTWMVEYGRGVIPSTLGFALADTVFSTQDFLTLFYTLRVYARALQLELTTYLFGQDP

In test [1] the target is sigma receptor. In words: [3H]DTG displacement radioligand binding assay, guinea pig brain membranes. The note with it: for IC50: read-out: IC50 vs. [3H]DTG.
The target of test [2] is sigma receptor (Cavia porcellus, UniProt Q60492). In words: biochemical. The note with it: IC50 vs. (+)[3H]3-PPP, Table III; ± SEM; average from 2-4 separate experiments in triplicate.

Like-named read-outs stand apart in the source and are kept apart here.

Take `CC1C2Cc3ccc(O)cc3C1(C)CCN2CC1CC1` (single isomer, unassigned; (+)) [(+)Cyclazocine, reference compound]: the IC50 at sigma receptor [1] is 0.365 ± 0.025 µM; at sigma receptor [2] it was 0.047 ± 0.012 µM. With `CC1C2Cc3ccc(O)cc3C1(C)CCN2CC1CC1` (single isomer, unassigned; (-)) [(-)Cyclazocine, reference compound], on sigma receptor [2], half-maximal inhibition (IC50) required 1 µM. Turning to `CN1CCN(CCCN2c3ccccc3Sc3ccc(C(F)(F)F)cc32)CC1` [Trifluoperazine, reference compound], the IC50 on sigma receptor [1] (Table III, ± SEM, average from 2-4 separate experiments in triplicate) is 0.345 ± 0.004 µM. Turning to “[leu^5 ] enkephalin [reference compound]”, the “displacement of [3H]DTG” value with sigma receptor [1] (10 uM) is “no significant displacement”.
